Biological target: human NK2 receptor (Homo sapiens, UniProt P21452)
Assay: Equilibrium-competition binding of 3H-NKA to MELM (receptor characterisation)

Amino acid sequences for entries named in this document (tags omitted).
UniProt P21452, whole entry: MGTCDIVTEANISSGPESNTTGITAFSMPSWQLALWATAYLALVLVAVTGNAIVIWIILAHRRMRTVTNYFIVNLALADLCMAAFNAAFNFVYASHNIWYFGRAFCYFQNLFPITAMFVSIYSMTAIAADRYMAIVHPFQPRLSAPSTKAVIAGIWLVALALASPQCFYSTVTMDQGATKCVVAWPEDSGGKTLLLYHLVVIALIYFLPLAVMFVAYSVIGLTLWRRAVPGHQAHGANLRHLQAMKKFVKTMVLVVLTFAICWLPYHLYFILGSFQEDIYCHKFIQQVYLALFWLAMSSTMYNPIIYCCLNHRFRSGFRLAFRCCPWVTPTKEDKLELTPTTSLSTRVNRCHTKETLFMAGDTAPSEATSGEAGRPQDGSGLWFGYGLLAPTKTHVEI

Question: [4,5-^3 H-Leu^9 ]-NKA [Example 3H-NKA] was tested. Which “specific binding of 3H-NKA to MELM” value (3H-NKA 2.5 nM) did it give?
Answer: Its value is 88±4%.

Question: And the “Bmax of 3H-NKA binding” value (MELM, equilibrium-competition)?
Answer: The value was 2229 fmol/mg protein.
